From EP1209158A1, “Substituted beta-carbolines” (Aventis Pharma Deutschland GmbH, priority 2000, dated 2002)
pIC50: −log10 of the molar value.

The chains behind the UniProt entries cited, without tags or fusion partners. Where a name states a change or a piece, a line headed by the entry shows the natural chain unless it says otherwise.
UniProt O14920: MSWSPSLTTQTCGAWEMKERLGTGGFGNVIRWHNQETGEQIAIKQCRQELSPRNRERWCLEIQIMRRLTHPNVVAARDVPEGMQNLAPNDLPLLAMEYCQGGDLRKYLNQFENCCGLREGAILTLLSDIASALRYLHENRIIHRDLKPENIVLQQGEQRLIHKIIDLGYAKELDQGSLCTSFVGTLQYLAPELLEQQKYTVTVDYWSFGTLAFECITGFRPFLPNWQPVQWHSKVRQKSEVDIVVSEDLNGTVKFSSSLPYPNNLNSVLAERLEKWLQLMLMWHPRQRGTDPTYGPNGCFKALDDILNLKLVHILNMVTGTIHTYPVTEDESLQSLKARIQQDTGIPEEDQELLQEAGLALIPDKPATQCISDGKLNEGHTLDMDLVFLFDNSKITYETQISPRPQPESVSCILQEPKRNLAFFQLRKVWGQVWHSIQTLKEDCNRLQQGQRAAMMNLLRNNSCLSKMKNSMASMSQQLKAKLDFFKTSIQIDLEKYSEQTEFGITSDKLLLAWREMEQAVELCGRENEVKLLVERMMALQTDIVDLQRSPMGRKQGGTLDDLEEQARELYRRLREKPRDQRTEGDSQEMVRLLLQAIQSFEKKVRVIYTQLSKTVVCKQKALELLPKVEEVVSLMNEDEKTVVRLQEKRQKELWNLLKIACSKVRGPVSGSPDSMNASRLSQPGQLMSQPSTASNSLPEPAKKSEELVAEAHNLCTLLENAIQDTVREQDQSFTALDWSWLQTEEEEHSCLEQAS
UniProt O15111: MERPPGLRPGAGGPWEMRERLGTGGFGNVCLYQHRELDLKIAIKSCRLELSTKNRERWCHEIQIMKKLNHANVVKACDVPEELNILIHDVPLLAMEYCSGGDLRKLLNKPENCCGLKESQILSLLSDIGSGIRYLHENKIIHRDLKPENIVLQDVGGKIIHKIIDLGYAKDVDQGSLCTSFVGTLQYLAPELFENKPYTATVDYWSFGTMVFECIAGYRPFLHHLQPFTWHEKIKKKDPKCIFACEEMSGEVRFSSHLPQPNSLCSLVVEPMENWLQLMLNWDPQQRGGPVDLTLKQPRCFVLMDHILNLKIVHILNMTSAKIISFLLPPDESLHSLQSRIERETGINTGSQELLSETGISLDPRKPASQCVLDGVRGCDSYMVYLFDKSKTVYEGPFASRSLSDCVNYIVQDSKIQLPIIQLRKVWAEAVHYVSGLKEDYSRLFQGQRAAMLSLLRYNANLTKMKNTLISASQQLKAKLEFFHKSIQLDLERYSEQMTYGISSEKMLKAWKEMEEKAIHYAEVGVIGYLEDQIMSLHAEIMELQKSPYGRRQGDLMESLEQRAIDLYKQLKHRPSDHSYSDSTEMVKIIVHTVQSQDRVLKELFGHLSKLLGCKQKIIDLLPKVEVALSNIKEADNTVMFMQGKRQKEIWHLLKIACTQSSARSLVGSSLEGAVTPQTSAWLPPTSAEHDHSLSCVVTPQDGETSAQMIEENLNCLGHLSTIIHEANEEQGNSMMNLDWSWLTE

Target: T1, IκBα-kinase complex (Homo sapiens, UniProt O14920+O15111)
T1 construct: IKBα kinase complex was prepared by first diluting 10 mL of HeLa S3 cell-extracts S100 fraction; endogenous in cells; host or cells: HeLa S3 (S100 fraction, 40% ammonium sulfate cut, Superose-6 fractions at about 670 kDa)
Type: biochemical
Conditions: read-out: IkB-kinase IC50

7-chloro-9-(dimethylamino)-β-carboline trifluoroacetate [Example 44]
pIC50: 5.70
